The experiment deals with IL-4 (Homo sapiens, UniProt P05112). Kind of experiment: HEK-Blue IL-4/IL-13 cell-based reporter (SEAP) IL-4 inhibition assay. The note with it: percent activity in HEK-Blue IL-4/IL-13. The procedure: HEK-Blue IL-4/IL-13 cells were purchased from Invivogen and maintained in DMEM complete with 10% fetal bovine serum, 10 μg/ml of blasticidin and 100 μg/ml of Zeocin, 100 μg/mL Normocin, and 100 U/mL-100 μg/mL Pen-Strep. Cells used for assays were between passages 12 and 18. […] HEK-Blue IL-4/IL-13 cells were trypsinized, spun down, and resuspended in DMEM with 10% heat-inactivated FBS, and 100 U/mL-100 μg/mL Pen-Strep at a concentration of 3.125E5/mL. 160 μL of the cell suspension was added to each well of a 96 well plate, avoiding the edges of the plate and equilibrated in an incubator for 1 hour. After 2 hours, 40 μL of the small molecule/IL-4 solution was added to each well. Each measurement performed in quadruplicate. Cells were incubated for 20 hours at 37° C./5% CO2. […] The optical density was then read at 650 nm with a Molecular Devices SpectraMax M5 Microplate Reader. Data was plotted and analyzed in GraphPad Prism 8.
HEK-Blue IL-4/IL-13 cells were purchased from Invivogen and maintained in DMEM complete with 10% fetal bovine serum, 10 μg/ml of blasticidin and 100 μg/ml of Zeocin, 100 μg/mL Normocin, and 100 U/mL-100 μg/mL Pen-Strep. […] Prior to screening small molecules, the SEAP production induced by IL-4 alone was tested in the cells (FIG. 13) and determined to be 0.3 ng/mL. […]

Amino acid sequences for entries named in this document (tags omitted). Residues count along the entry.
UniProt P05112, 25-153 limits assumed: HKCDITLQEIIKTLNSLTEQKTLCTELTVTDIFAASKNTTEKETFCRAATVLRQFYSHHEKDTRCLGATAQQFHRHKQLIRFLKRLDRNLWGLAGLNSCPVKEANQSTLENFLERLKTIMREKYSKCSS

This is an account of results in patent US12043621B2, “Small molecule inhibitors of Interleukin-4” (Trustees of Boston University, priority 2020, dated 2024).

In the case of `COc1ccc(-c2nc(N)c(C#N)c(-c3ccc(O)c(O)c3)c2C)cc1`, the “Activity at 1 uM” value (1 uM) was 81.51. Besides, the “Activity at 10 uM” value (10 uM) amounted to 3.225.
